Measurements as given in US20100316573A1, “Organic Compounds” (priority 2006, published 2010).

System: TNFα mRNA in SKOV-3 cells
Assay: TNFα mRNA induction in SKOV-3 cells (FIG. 2), fold increase relative to untreated cells

Substance: N-D-Cyclohexyl-2-(2-{2-[(4-fluorophenyl)-methyl-amino]-pyridin-4-yl}pyrrolidin-1-yl)-2-oxo-ethyl]-2-methylamino-propinamide [Compound II]
- fold increase of TNF relative to untreated cells (100 nM compound + PI (MG132)): 15-20 fold increase
- fold increase of TNF relative to untreated cells (100 nM compound + ZVAD): 95-100 fold increase
- fold increase of TNF relative to untreated cells (1000 nM compound + ZVAD): 125-130 fold increase
- fold increase of TNF relative to untreated cells (1000 nM compound + sTNFR (soluble TNFα receptor)): 0-5 fold increase
- fold increase of TNF relative to untreated cells (100 nm compound + sTNFR (soluble TNFα receptor)): 0-1 fold increase
